The text below walks through data of patent publication US9624243B2, “Heterocyclic compounds and methods of their use” (Novartis AG, priority 2012, dated 2017).

The chains behind the UniProt entries cited, without tags or fusion partners.
UniProt P50052, whole entry, species assumed: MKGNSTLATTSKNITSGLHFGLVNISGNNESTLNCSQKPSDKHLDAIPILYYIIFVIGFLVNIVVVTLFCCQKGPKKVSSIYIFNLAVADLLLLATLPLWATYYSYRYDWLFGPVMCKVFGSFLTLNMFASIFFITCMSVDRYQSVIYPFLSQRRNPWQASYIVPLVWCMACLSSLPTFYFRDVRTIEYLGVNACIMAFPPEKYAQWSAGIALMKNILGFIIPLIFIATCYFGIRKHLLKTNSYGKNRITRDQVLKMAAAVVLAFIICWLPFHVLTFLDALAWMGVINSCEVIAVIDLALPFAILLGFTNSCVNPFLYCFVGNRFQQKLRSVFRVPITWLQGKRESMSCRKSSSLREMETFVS

For the test, the target named is AT2 receptor (Homo sapiens (Human), UniProt P50052). Description: AT2 Receptor Binding. Particulars: HEK293 AT2 receptor transient cell membranes, [125I]-CGP42112A. How it is done: 1. Trypsin-EDTA (for Preparation of 100 mL)
• Dissolve trypsin in 2% EDTA and PBS completely; sterilize the solution by passing through a […] membrane filter; store at 4° C.
2. DMEM Medium (for Preparation of 1 L) • The powder was dissolved into 950 mL of distilled water with gentle stirring until the solution becomes clear. • Add. NaHCO3 1.176 g for DMEM medium. • Adjust pH of medium to 0.2˜0.3 below final working pH using 1 M NaOH or 1 M • HCl. Add slowly with stirring. • Dilute to 1 liter with ddH2O. • Sterilize the medium immediately by filtration. • Store at 4° C.
3. TE Buffer • 20 mM Tris-HCl, pH 7.4, • 5 mM EDTA
4. Binding Assay Buffer • 50 mM Hepes, pH 7.4 • 5 mM MgCl2 • 1 mM CaCl2 • 0.2% BSA
5. Wash Buffer • 50 mM Hepes, pH 7.4 Procedures for HEK293AT2 Receptor Transient Cell Transfection • Cells were plated into 150 mm dish at 50% density for transient transfection. Cells were ready for transfection after overnight incubation (the confluence reaches around 80%). • 75 μL Lipofectamine™2000 diluted in 6.25 mL OptiMEM I Reduced Serum Medium, was mixed gently, and incubated at room temperature for 5 minutes. 50 μg expression plasmid DNA diluted in 6.25 mL OptiMEM I Reduced Serum Medium without serum was mixed gently. • After the 5 minute incubation, the diluted DNA was combined with the diluted Lipofectamine™2000 (total volume is 12.5 mL). The mixture was mixed gently and incubated for 30 minutes at room temperature to allow the DNA-Lipofectamine™2000 complexes to form. • The 12.5 mL DNA-Lipofectamine™2000 complexes were added into the 150 mm dish and mixed gently by rocking the dish back and forth. • The cells were incubated at 37° C. with 5% CO2 for 48 hours. Cells were collected and stored frozen at −80° C. Procedures for HEK293AT2 Receptor Cell Membrane Preparation • Frozen HEK293AT2 receptor (transient transfected) cells were homogenized in ice cold TE buffer for 10s. • The homogenate was centrifuged at 25,000 g for 30 minutes. • The pellet was resuspended in ice cold tissue buffer. • Protein concentrations were determined using Bradford assay method with BSA as standard. • The membrane protein was frozen under −80° C. Compound Preparation
Solutions of all compounds were prepared bymicroplate liquid handling equipment such as Janus or Precision 2000. Compounds, dissolved in DMSO were stored in a Freezer. Compounds were prepared from 30 mM in 100% DMSO.
Step 1: Dose Plate Preparation (96 Well Plate)
• Add the 3 μL [30 mM] compound stock to column 1 on the plate. • Add 15 μL of 100% DMSO to column 1. • Add 10.81 μL of 100% DMSO to column 2-12. • Transfer 5 μL from column 1 into column 2 (half log dilution). • Transfer 5 μL from column 2 into column 3 (half log dilution). • Transfer 5 μL from column 3 into column 4 (half log dilution). • Transfer 5 μL from column 4 into column 5 (half log dilution). • Transfer 5 μL from column 5 into column 6 (half log dilution). • Transfer 5 μL from column 6 into column 7 (half log dilution). • Transfer 5 μL from column 7 into column 8 (half log dilution). • Transfer 5 μL from column 8 into column 9 (half log dilution). • Transfer 5 μL from column 9 into column 10 (half log dilution) • Transfer 5 μL from column 10 into column 11 (half log dilution) • Transfer 5 μL from column 11 into column 12 (half log dilution).
All the compounds were diluted using Precision 2000 microplate liquid handling equipment. The top concentration of compound was 5 mM with 100% DMSO.
Step 2: Working Plate Preparation (96 Well Plate) […]

With `CN(C[C@@H]1C[C@H]1c1ccccc1)[C@H]1C[C@@H](C(=O)O)N(C(=O)C(c2ccccc2)c2ccccc2)C1` (racemic) [Compound 63, (2S,4S)-1-(2,2-diphenylacetyl)-4-(methyl((2-phenylcyclopropyl)methyl)amino)pyrrolidine-2-carboxylic acid], the IC50 (as a rule, the concentration needed to halve the response being measured) came to 483 nM. In turn, `O=C(O)[C@@H]1C[C@H](OC/C=C/c2ccccc2)CN1C(=O)C(c1ccccc1)c1ccccc1` [Compound 5, (2S,4S)-4-cinnamyloxy-1-(2,2-diphenylacetyl)pyrrolidine-2-carboxylic acid] gave an IC50 of 90 nM.

With `O=C(O)[C@@H]1C[C@@H](OC/C=C/c2ccccc2)CN1C(=O)C(c1ccccc1)c1ccccc1` [Compound 8, (2S,4R)-4-(cinnamyloxy)-1-(2,2-diphenylacetyl)pyrrolidine-2-carboxylic acid], the IC50 amounted to 512 nM.

In turn, `O=C(O)[C@@H]1C[C@@H](OCCCc2ccccc2)CN1C(=O)C(c1ccccc1)c1ccccc1` [Compound 9, (2S,4R)-1-(2,2-diphenylacetyl)-4-(3-phenylpropoxy)pyrrolidine-2-carboxylic acid] came in with an IC50 of 98.6 nM. `O=C(O)[C@H]1C[C@@H](OCCCc2ccccc2)CN1C(=O)C(c1ccccc1)c1ccccc1` [Compound 76, (2R,4R)-1-(2,2-diphenylacetyl)-4-(3-phenylpropoxy)-pyrrolidine-2-carboxylic acid] returned an IC50 of 3600 nM. This IC50 lies about 37-fold higher than the previous one.
